System: mammalian vacuolar-type (H+)-ATPase (from chromaffin granule membranes)
Test: mammalian vacuolar-type (H+)-ATPase inhibition, side-by-side test
Assay type: biochemical
Settings: mammalian versus fungal enzyme

SMILES: CC/C=C\C=C/C(=O)N/C=C/CC1CC(O)C(C)C/C=C/Cc2cccc(O)c2C(=O)O1 (stereo not shown) [salicylihalamide A]
- selectivity for mammalian versus fungal vacuolar-type (H+)-ATPase: highly selective

— patent publication US7381744B1, “Method of treating osteoporosis comprising vacuolar-type (H+)-ATPase-inhibiting compounds” (The United States of America as represented by the …, priority 1999, dated 2008)
